Results taken from BindingDB's records for US10793556.

Sequences of proteins named here, by UniProt entry; tags and fusion partners are left off. A change or cut given only in a name is not applied to a line headed by its entry.
UniProt P35372, whole entry, looked up: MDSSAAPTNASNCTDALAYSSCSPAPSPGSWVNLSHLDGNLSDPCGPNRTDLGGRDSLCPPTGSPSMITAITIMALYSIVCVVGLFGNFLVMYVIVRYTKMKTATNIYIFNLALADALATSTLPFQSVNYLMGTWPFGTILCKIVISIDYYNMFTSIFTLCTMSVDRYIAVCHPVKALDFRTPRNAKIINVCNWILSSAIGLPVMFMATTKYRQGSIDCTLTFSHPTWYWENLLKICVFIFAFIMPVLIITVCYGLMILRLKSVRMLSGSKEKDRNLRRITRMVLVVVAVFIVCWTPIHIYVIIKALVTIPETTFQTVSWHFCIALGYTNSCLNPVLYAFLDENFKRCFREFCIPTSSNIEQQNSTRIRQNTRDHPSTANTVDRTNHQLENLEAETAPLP
UniProt P41146: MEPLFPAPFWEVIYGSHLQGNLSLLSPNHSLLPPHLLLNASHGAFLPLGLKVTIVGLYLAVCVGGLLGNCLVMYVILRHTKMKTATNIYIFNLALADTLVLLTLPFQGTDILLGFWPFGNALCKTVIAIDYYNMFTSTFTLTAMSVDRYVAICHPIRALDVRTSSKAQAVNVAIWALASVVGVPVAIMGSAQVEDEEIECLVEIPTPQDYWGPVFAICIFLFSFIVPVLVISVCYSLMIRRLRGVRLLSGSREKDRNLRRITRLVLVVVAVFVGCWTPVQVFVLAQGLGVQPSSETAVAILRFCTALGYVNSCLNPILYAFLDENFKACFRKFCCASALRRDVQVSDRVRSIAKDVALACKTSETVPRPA

Legend:
Mu-type opioid receptor = Mu-type opioid receptor (Homo sapiens, UniProt P35372); experiment: Receptor Binding Assay
Nociceptin receptor = Nociceptin receptor (Homo sapiens, UniProt P41146); experiment: Receptor Binding Assay

SMILES | Ki (Mu-type opioid receptor) [nM] | Ki (Nociceptin receptor) [nM]
CN(C)[C@]1(c2ccccc2)CC[C@]2(CC1)CN(CC(C)(C)C#N)C(=O)N2CC1(F)CC1 | 2920 | 
CN(C)[C@]1(c2ccccc2)CC[C@]2(CC1)CN(CCCC(N)=O)C(=O)N2CC1CCC1 | 80.5 | 2.3
CN(C)[C@]1(c2ccccc2)CC[C@]2(CC1)CN(CCCC#N)C(=O)N2CC1CCC1 |  | 1.6
